# Binding of CDR-mutated scFvs to a peptide of the spike HR2 region

Target: peptide PDVDLGDISGINAS, taken from heptad repeat 2 (HR2) of SARS-CoV-2 spike.

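Phage display of a naive human antibody library on the peptide gave the parent. These sequences belong to a second round, designed from the earlier measurements on random variants of the parent. Several design methods are mixed in this list. In AlphaSeq, yeast of one mating type display the scFv and yeast of the other type display the target. The frequency of each diploid, read from paired DNA barcodes, reflects how well the two displayed proteins bind. Scores were corrected for input abundance and mapped to Kd with protein pairs of known affinity run in the same pool. Mating was done six times.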

Parent: Ab-14, a human scFv built as VH, three GGGGS repeats, VL. Only the CDRs of the heavy chain vary.
VH: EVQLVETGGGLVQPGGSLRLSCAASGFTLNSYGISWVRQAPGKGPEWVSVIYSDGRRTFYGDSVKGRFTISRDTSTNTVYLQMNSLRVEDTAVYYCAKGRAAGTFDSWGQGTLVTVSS
VL: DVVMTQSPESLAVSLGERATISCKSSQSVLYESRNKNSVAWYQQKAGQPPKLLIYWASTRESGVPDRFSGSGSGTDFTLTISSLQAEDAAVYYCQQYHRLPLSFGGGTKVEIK

Variants are written as CDR1, CDR2 and CDR3 of the heavy chain (limits as in the source). Parent: GFTLNSYGIS, VIYSDGRRTFYGDSVK, GRAAGTFDS.
Kd is apparent (estimated from mating counts) and averaged on the log scale over replicates with a signal. Smaller is tighter.
A pair that was not seen in any replicate is written "no signal"; this usually means weak binding, but a binder can also be missed.
The authors' rule: three or more of the six replicates give a measured affinity, fewer mean a poor binder.

| # | CDR-H1 | CDR-H2 | CDR-H3 | Kd | seen in | empty controls |
|---|---|---|---|---|---|---|
| 1 | GFDLNEYGIS | VIYADGMRTAYTDSVK | GNQAGTFDV | 230 pM | 6 of 6 | 0 of 18 |
| 2 | GFELNSYGIS | VIYSDGRRTFYDDSVK | GKLAGTFDS | 2.9 nM | 6 of 6 | 0 of 18 |
| 3 | GFNLNSYGIS | VIYSDGQRTFYGDSVK | GRAAGTFSS | no signal | 0 of 6 | 0 of 18 |
| 4 | GFSINSYGIS | VIYSDGRRTFYGDSVK | GQAAGTFDS | 5.3 nM | 6 of 6 | 0 of 18 |
| 5 | GFTLNEYGIS | VIYSDGRRTFYTDSVK | GHFAGTFDS | 7.3 nM | 6 of 6 | 1 of 18 |
| 6 | GFDIDEYGIS | VIYADGMRTFYTDSVK | GELAGTFDA | 520 pM | 6 of 6 | 0 of 18 |
| 7 | GFSLNDYGIS | VIYSDGRRTFYGWSVK | GRTAGTFDS | 1.0 nM | 1 of 6 | 0 of 18 |
| 8 | GFDLDEYGIS | VIYADGRRTAYADDVK | GNTAGTFDV | 270 pM | 6 of 6 | 0 of 18 |
| 9 | GFDLNEYGIS | VIYADGKRTAYADSVK | GNQAGTFDT | 1.2 nM | 5 of 6 | 0 of 18 |
| 10 | GFDLEDYGIS | VIYADGMRTAYSDSVK | GEVAGTFDQ | 960 pM | 6 of 6 | 0 of 18 |
| 11 | GETLNSYGIS | VIYSDGRRTAYGDSVK | GDLAGTFDQ | 6.3 nM | 6 of 6 | 0 of 18 |
| 12 | GFTLNSYGIS | VIYADGKRTFYGDSVK | DRAAGTFDH | no signal | 0 of 6 | 0 of 18 |
| 13 | GFTLNEYGIS | VIYSDGRRTFYGDSVK | GRAAGTFDM | no signal | 0 of 6 | 0 of 18 |
| 14 | GFDVNEYGIS | VIYADGTRTAYANTVK | GKYVGVFVD | no signal | 0 of 6 | 0 of 18 |
| 15 | GFFLDEYGIS | VIYADGMRTAYKDKVK | GSDTLLGWF | no signal | 0 of 6 | 0 of 18 |
| 16 | GFELNEYGIS | VIYSDGRRTFYSDAVK | GRCAGTFDS | 410 nM | 4 of 6 | 0 of 18 |
| 17 | GFTLNSYGIS | VIYSDGRRTFYDMSVK | GQLAGTFDS | 130 nM | 1 of 6 | 0 of 18 |
| 18 | GFGLNEYGIS | VIYSDGRRTFYHDSVK | GRAAGTFWS | 5.7 nM | 4 of 6 | 0 of 18 |
| 19 | GMDLSEYGIS | VIYADGMRTYASDSVK | GEHGGMLLY | no signal | 0 of 6 | 0 of 18 |
| 20 | GDSLDEYGIS | VIYADGLRKQYSNKVK | GLEGFFFDQ | 29 nM | 1 of 6 | 0 of 18 |
| 21 | GFDLNEYGIS | VIYADGMRSYYADSVK | GNVAGTFDV | 3.0 nM | 6 of 6 | 0 of 18 |
| 22 | GFHLNEYGIS | VIYSDGRRTFYGDSVK | GHAAGTFDS | 2.4 nM | 6 of 6 | 1 of 18 |
| 23 | GFDLNEYGIS | VIYADGRRTFYADSVK | GSEAGTFNI | 280 pM | 6 of 6 | 0 of 18 |
| 24 | GFELNSYGIS | VIYSDGRRTFYQDSVK | GQTAGTFDS | 4.9 nM | 6 of 6 | 0 of 18 |
| 25 | GFDLDEYGIS | VIYADGMRTAYSDSVK | GNNAGTFDL | 690 pM | 6 of 6 | 1 of 18 |
| 26 | GFDLEEYGIS | VIYADGLREAYTANVK | GGKSGDFFM | no signal | 0 of 6 | 0 of 18 |

Further variants, results first:

| # | Kd | seen in | empty controls | CDR-H1 | CDR-H2 | CDR-H3 |
|---|---|---|---|---|---|---|
| 27 | 270 pM | 6 of 6 | 0 of 18 | GFSLNEYGIS | VIYADGRRTFYGDSVK | GRAAGTFDS |
| 28 | 630 pM | 1 of 6 | 0 of 18 | GFTLNSYGIT | VIYSDGRRTFYGDSVK | GSRAVMFDS |
| 29 | 71 nM | 4 of 6 | 0 of 18 | GFTLNSYGIS | VIYSDGMRTFYIDSVK | GRAAGTFDS |
| 30 | 190 pM | 6 of 6 | 0 of 18 | GFDLDEYGIS | VIYADGRRTAYADNVK | GETAGTFDV |
| 31 | 310 pM | 6 of 6 | 1 of 18 | GFDLNEYGIS | VIYADGMRTFYIDSVK | GETAGTFDQ |
| 32 | 640 pM | 6 of 6 | 0 of 18 | GFELNEYGIS | VIYSDGRRTFYGDSVK | GKTAGTFDV |
| 33 | 2.4 nM | 6 of 6 | 0 of 18 | GFDLNSYGIS | VIYSDGRRTFYIDSVK | GWTAGTFDS |
| 34 | 1.3 nM | 6 of 6 | 0 of 18 | GFDLNEYGIS | VIYADGQRTAYADSVK | GNNAGTFDQ |
| 35 | no signal | 0 of 6 | 0 of 18 | GFELNSYGIS | VIYSDGRRTFYGDSVK | GKTAGTFDN |
| 36 | 490 pM | 6 of 6 | 1 of 18 | GFDIDEYGIS | VIYADGRRTFYADSVK | GTNAGTFDV |
| 37 | 870 nM | 1 of 6 | 0 of 18 | GFDLDKYGIS | VIYADGRRKAYQTQFK | GGMTGTFDI |
| 38 | 42 nM | 3 of 6 | 0 of 18 | GFTLNSYGIS | VIYSDGRRTFYGDAVK | GDAAGTFDS |
| 39 | no signal | 0 of 6 | 0 of 18 | GFTLMSYGIS | VIYADGRRTFYGDSVK | GRAAGTFSS |
| 40 | 29 nM | 3 of 6 | 0 of 18 | GFTLNSYGIS | VIYSDGRRTFYGDDVK | GRASGTFDS |
| 41 | 530 pM | 6 of 6 | 0 of 18 | GFDLDEYGIS | VIYADGRRTAYSDSVK | GENAGTFDM |
| 42 | 16 nM | 1 of 6 | 0 of 18 | GFHLNSYGIS | VIYSDGRRTFYIDSVK | GKAAGTFDS |
| 43 | 48 nM | 6 of 6 | 0 of 18 | GFTLNSYGIS | VIYSDGRRTFYGDKVK | GQAAGTFDQ |
| 44 | 2.6 nM | 6 of 6 | 1 of 18 | GFDLNSYGIS | VIYSDGRRTFYADDVK | GRAAGTFDS |
| 45 | 380 pM | 6 of 6 | 1 of 18 | GFDLNEYGIS | VIYADGQRTAYADSVK | GGNAGTFDI |
| 46 | 14 nM | 2 of 6 | 0 of 18 | HFTLNSYGIS | VIYADGRRTFYQDSVK | GRAAGTFDS |
| 47 | no signal | 0 of 6 | 0 of 18 | GFDLDKYGIS | VIYADGRRKFYQNQFK | GGQTGTFDI |
| 48 | 1.6 nM | 6 of 6 | 0 of 18 | GFEIQEFGIS | VIYADGRRTAYAENVK | GTLGGTFDT |
| 49 | 240 pM | 6 of 6 | 1 of 18 | GFNLDEYGIS | VIYADGKRTFYADSVK | GQVAGTFDS |
| 50 | 25 nM | 4 of 6 | 0 of 18 | GFTLNSYGIS | VIYSDGRRTYYGDSVK | GRAAGTFDT |
| 51 | no signal | 0 of 6 | 0 of 18 | GFDLEEYGIS | VIYADGMRQYAQDNVK | GLISGKGKT |
| 52 | 650 pM | 6 of 6 | 0 of 18 | GFDLNEYGIS | VIYADGSRTAYADSVK | GNEAGTFDI |
| 53 | no signal | 0 of 6 | 0 of 18 | GFDLNEYGIS | VIYADGQRVSYAQNVK | GLVGKLKVV |

Background: pairings of all heavy chain designs with three empty control strains gave a value in 1% of cases (median 120 nM, 5th percentile 7.0 nM). Values in that range, when seen in few replicates, are hard to tell from nonspecific mating. For each scFv, signals with the empty controls are counted beside the result.
A sequence measured in both rounds can read differently, since the two assays cover different ranges.

From the AlphaSeq antibody data of Li et al. 2023 (doi:10.1038/s41467-023-39022-2), copy in the FLAb collection.